The values that follow are results of earlier work, collected in patent US20160282364A1, “ASSAY FOR INSULIN-DEGRADING ENZYME (IDE) INHIBITORS” (PRESIDENT AND FELLOWS OF HARVARD COLLEGE, priority 2013, published 2016).

For this series, the system named is IDE. The note with it: degradation kinetics compared to insulin; cited from earlier work.

As for “calcitonin-gene related peptide (ACDTATCVTHRLAGLLSRSGGVVKNNFVPTNVGSKAF; Calcitonin gene-related peptide 1; UniProt P06881 83-119, looked up) [calcitonin-gene related peptide (CGRP), IDE substrate in vitro]”, the Degradation entry is listed as “Medium”.
